According to US10308636B2, “Aromatic heterocyclic compound” (MITSUBISHI TANABE PHARMA CORPORATION, priority 2012, dated 2019):

Test system: Male KK-Ay mice
Experiment: Body weight gain-suppressing, hypoglycemic and plasma insulin-decreasing action in KK-Ay mouse
Details: 30 mg/kg/day oral once a day for 2 weeks, KK-Ay mice on high fat diet; for Hypoglycemic action (30 mg/kg/day): blood sugar after overnight fast; for Hypoglycemic action (30 mg/kg/day) / Plasma insulin-decreasing action (30 mg/kg/day): relative to solvent control; for Plasma insulin-decreasing action (30 mg/kg/day): plasma insulin after overnight fast; for Body weight gain-suppressing action (30 mg/kg/day): relative to body weight gain of solvent control as 100%

Compound | Hypoglycemic action (30 mg/kg/day) [%] | Plasma insulin-decreasing action (30 mg/kg/day) [%] | Body weight gain-suppressing action (30 mg/kg/day) [%]
CC(C)(COc1ccc(-c2ccc(-c3nc(C(F)(F)F)n[nH]3)cc2)cn1)C(=O)O | 26 | 21 | 41
O=C(O)c1cccc(OCC2CCN(c3ccc(-c4nc(C(F)(F)F)c[nH]4)cn3)CC2)c1 | 36 | 53 | 21
